Values quoted from earlier work, collected in US20260224527A1, “USES OF ANTI-PSYCHOTIC AGENTS” (LB PHARMACEUTICALS INC., priority 2023, published 2026).

Sequences of proteins named here, by UniProt entry; tags and fusion partners are left off. Residues count along the entry.
UniProt P34969, 1-445 isoform P34969-2: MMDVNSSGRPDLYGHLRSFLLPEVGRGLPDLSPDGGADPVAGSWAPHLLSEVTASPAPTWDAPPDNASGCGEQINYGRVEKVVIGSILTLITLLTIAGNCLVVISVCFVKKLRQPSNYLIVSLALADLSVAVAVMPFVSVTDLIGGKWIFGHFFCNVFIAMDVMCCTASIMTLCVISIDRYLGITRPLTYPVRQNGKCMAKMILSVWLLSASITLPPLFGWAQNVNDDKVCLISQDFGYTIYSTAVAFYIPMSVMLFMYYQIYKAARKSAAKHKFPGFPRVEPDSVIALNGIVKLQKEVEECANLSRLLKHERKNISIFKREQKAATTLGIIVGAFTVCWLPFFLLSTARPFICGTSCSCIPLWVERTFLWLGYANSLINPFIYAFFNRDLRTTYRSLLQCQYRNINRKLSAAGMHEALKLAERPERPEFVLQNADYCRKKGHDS

Target: HT7a receptor (Homo sapiens, UniProt P34969)
Conditions: cited from earlier work

## CCN1CCCC1CNC(=O)c1cc(S(=O)(=O)CC)c(N)cc1OC (stereo not shown) [Amisulpride, 4-amino-N-(((1-ethyl-2-pyrrolidinyl)methyl)-5-(ethylsulfonyl))-2-methoxybenzamide]
  Ki: low double digit
